Test results: patent publication US7612035B2, “Inhibition of mitogen-activated protein kinase (MAPK) pathway: a selective therapeutic strategy against melanoma” (Van Andel Research Institute, priority 2000, dated 2009)

Tested on: melanotic UACC-257 and MALME-3M cell lines
Test: Determination of melanin content (melanogenesis)
Assay type: cell-based, human
Details: single agents; melanotic melanoma cell lines
Description: Intracellular melanin was solubilized by lysing cells in 0.2N NaOH and incubating at 60° C. for 1 hour. The relative absorbance at 405 nm for melanin to that at 280 nm for protein was calculated (A405/A280). The control relative absorbance, “A405/A280 (PA alone)” was set to 1.0. The melanin content in each treatment group was expressed as the ratio
[formula] To visualize melanization, 4×10^6 cells from each group were concentrated in a well of 96-well microplate and photographed (e.g., FIG. 5). In Vivo Testing of LF on M14-MEL or SK-MEL-28 Xenografts in Athymic Nude Mice
Melanogenesis is induced during melanocyte (and melanoma cell) differentiation (Busca, R. et al. Mol Biol Cell 9:1367-1378 (1998)). Inhibition of the MAPK pathway was known to induce differentiation of B16 mouse melanoma cells (Englaro, W. et al. J Biol Chem 273:9966-9970 (1998)). […] To address this possibility, cyclic AMP (cAMP)-elevating agents that induce melanoma cell differentiation (Busca et al., supra, and reference cited therein) were examined for their effects on melanogenesis and apoptosis induced by LF or PD98059 in the melanotic UACC-257 and MALME-3M cell lines.

CC(C)CCc1nc2[nH]c(=O)[nH]c(=O)c2[nH]1 was tested, and the “melanin production / melanogenesis” value was “Neither EF nor IBMX treatment induced significant melanogenesis”.
